Earlier results in patent US20060136023A1 (priority 2004, published 2006).

System: opiate receptor

**Q.** With `CN1CC[C@]23c4c5ccc(O)c4O[C@H]2[C@@H](O)C=C[C@H]3[C@H]1C5` [morphine] as the molecule, how does the “affinity for the opiate receptor, one enantiomer versus the other” value read?
**A.** The value was “(−) isomer of morphine has much greater affinity”.
